Experimental data: PMC7419010 (PLoS Pathogens, 2020)

Tests used:
Lsa-nAChR1 (α1α2β1β2) = Lsa-nAChR1 (α1α2β1β2) (Lepeophtheirus salmonis, UniProt A0A7S5PZ05+A0A7S5Q3W4+A0A7S5Q7H3+A0A7S5U9A3); assay: cell-based
Procedure: (§1) Capped cRNAs were synthesized (T7 mMessage mMachine kit, Ambion, Austin, TX, USA) from the linearized vectors containing the different subunits according to the manufacturer’s protocol. cRNA samples were stored at -80°C until use. Oocytes were ordered from Ecocyte (Germany). Oocytes were microinjected using a Roboinject automatic injection system (Multi Channel Systems, Reutlingen, Germany) with 15–25 nl of cRNA solution (30–300 ng/μl per subunit) and then incubated at 18°C in sterile filtered Barth solution containing: NaCl (88 mM), KCl (1 mM), NaHCO3 (2.4 mM), HEPES (10 mM, pH 7.5), MgSO4·7H2O (0.82 mM), Ca(NO3)2·4H2O (0.33 mM), CaCl2·6H2O (0.41 mM), at pH 7.4, and supplemented with 20 μg/ml of kanamycin, 100 U/ml benzylpenicillin and 100 μg/ml streptomycin. Recordings were made 3–5 days post-cRNA injection.
(§2) Oocytes were impaled with two electrodes filled with 3 M KCl, and their membrane potentials were maintained at -80 mV throughout the experiment. Currents evoked by ACh or drugs were recorded using an automated process equipped with standard two-electrode voltage-clamp configuration (HiClamp, MultiChannel Systems). The principle of this system differs from standard electrophysiology because, instead of applying the compound in the perfusion, the oocyte is moved into a well from a 96-well microtiter plate containing the desired solution. Data were captured at 100 Hz, filtered at 10 Hz, and analyzed using proprietary data acquisition and analysis software running under Matlab (Mathworks Inc., Natick, MA, USA). Additional analyses were performed in Excel (Microsoft, Redmond, WA, USA). […] Concentration-activation curves were fitted with the equation: Y=100/1+10^H(logEC50−X) (1) where Y is the normalized response, logEC50 is the logarithm of the concentration of agonist eliciting half-maximal current amplitude, X is the log of dose or concentration, and H is the slope factor or Hill slope. Individual curves were standardized to the initial ACh (100 μM) application amplitude and subsequently averaged. EC50 values were determined from the mean of at least 3 or more cells.
(§3) Dose-response curves were obtained by sequential applications for 10s of increasing concentrations of ACh or drugs to oocytes expressing Lsa-nAChR1 or Lsa-nAChR2. A total time of 90 s time was allowed between applications for the channel to recover from any desensitization. To test the antagonistic effect of DHbE (Fig 5) and for the screening protocol (Fig 6), cells that evoked a significant current with ACh were exposed to the test compounds at 10 μM respectively 1 μM using a pre-application of 45 s and co-application of 10 s with ACh (1 μM).

Lsa-nAChR2 (α3β1β2) = Lsa-nAChR2 (α3β1β2) (Lepeophtheirus salmonis, UniProt A0A7S5PZ03+A0A7S5PZ05+A0A7S5Q7H3); assay: cell-based
Procedure: as §1, §2, §3

**Q.** For `CC(=O)OCC[N+](C)(C)C` [Acetylcholine], which EC50 (Lsa-nAChR1 (α1α2β1β2); EC50 (nM)) is on record?
**A.** 1960 nM

**Q.** What about the EC50 (Lsa-nAChR1 (α1α2β1β2); Mean EC50 (μM) ± SD) of the same compound?
**A.** 2110 nM and 2010 nM

**Q.** What about the EC50 (Lsa-nAChR2 (α3β1β2); EC50 (nM)) of the same compound?
**A.** 1820 nM

**Q.** What about the EC50 (Lsa-nAChR2 (α3β1β2); Mean EC50 (μM) ± SD) of the same compound?
**A.** 1230 nM and 1930 nM

**Q.** What about the EC50 (Lsa-nAChR2 (α3β1β2); calculated EC50) of the same compound?
**A.** 1830 nM

Values joined by “and” are separate entries in the source; they are usually repeats but may differ in a detail not shown here. Equal entries are not always repeated.
